Earlier results, collected in US5034212A, “Method of imaging using a radioactive glucosamine derivative” (Nihon Medi-Physics Co., Ltd., priority 1989, dated 1991).

Test system: hexokinase
Details: cited from earlier work

OC[C@H]1OC(O)[C@H]([18F])[C@@H](O)[C@@H]1O (some centres unmarked) [^18 F-FDG, ^18 F-labeled deoxyglucose]
Passage through cell membrane: passes through a cell membrane into a cell according to the glucose carrier system | Phosphorylation by hexokinase inside the cell: phosphorylated at the 6-position by the action of hexokinase inside the cell and is stored therein
